The record followed here is US11524977B2, “Ultrasound-assisted simulated digestion method of milk protein active peptide and application thereof in health foods” (JIANGSU UNIVERSITY, priority 2017, dated 2022).

Amino acid sequences for entries named in this document (tags omitted). Residues count along the entry.
UniProt P12821, 30-1306, species assumed: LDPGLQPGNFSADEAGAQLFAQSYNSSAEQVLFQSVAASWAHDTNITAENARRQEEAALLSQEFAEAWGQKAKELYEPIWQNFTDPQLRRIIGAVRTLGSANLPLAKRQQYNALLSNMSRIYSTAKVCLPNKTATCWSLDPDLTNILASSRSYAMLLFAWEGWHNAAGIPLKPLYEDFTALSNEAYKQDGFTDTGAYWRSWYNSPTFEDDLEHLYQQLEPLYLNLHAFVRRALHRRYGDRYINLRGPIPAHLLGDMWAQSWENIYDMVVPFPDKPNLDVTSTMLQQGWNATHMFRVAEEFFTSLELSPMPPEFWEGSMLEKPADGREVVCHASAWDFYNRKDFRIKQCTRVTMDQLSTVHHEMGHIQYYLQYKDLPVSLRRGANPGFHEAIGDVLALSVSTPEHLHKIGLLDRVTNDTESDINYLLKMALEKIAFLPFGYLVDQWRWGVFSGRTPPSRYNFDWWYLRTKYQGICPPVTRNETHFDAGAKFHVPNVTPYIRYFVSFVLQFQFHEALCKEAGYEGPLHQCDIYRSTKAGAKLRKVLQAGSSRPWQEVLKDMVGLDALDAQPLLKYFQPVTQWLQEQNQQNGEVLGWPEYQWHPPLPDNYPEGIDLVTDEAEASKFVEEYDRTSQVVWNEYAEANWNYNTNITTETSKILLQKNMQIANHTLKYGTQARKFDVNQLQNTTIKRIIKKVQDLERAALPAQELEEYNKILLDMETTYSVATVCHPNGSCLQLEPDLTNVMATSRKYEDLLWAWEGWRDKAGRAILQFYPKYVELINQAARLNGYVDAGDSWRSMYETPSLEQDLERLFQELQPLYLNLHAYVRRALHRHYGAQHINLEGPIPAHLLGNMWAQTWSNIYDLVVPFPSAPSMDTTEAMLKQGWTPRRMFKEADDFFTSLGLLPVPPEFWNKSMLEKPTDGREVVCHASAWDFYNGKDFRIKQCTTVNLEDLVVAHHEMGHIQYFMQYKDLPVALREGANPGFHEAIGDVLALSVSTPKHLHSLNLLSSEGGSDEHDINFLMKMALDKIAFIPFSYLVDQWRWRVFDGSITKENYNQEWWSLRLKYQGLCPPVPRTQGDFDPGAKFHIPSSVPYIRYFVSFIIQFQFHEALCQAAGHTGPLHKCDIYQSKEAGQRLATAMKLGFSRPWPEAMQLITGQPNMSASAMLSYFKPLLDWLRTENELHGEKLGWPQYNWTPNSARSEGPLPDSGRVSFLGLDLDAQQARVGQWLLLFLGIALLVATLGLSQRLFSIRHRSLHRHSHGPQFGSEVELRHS

In the assay the target is ACE (Homo sapiens, UniProt P12821). The format is biochemical. Particulars: read-out: IC50 (ACE inhibition).

Regarding Leu-Ser-Leu-Pro [LSLP], the 50% inhibitory concentration (IC50) amounted to 21.1 µM.
